# Measurements from patent US20260207548A1, “METHODS AND COMPOSITIONS FOR THE TREATMENT OF VASCULAR ANOMALIES” (THE CHILDREN'S MEDICAL CENTER CORPORATION, priority 2022, published 2026).
# Assays:
# [1] = tested on: SREBP2; assay: Western blot of SREBP2 in HemSC undergoing endothelial differentiation; type: cell-based, human; settings: 2 hours on Day 6 of differentiation
# [2] = tested on: SREBP2; assay: SOX18 shRNA knockdown HemEC: SREBP2 Western blot and qPCR of SREBP2 target genes; type: cell-based, human; settings: HemEC with SOX18 knockdown; hydrochloride
# [3] = tested on: β1- and β2-adrenergic receptors; settings: cited from earlier work
compound,measurement,setting,value
"CC(C)NC[C@@H](O)COc1cccc2ccccc12.Cl [R(+) propranolol, R(+) propranolol hydrochloride]",62 kDa/125 kDa SREBP2 ratio,[1],decreased the 62 kDa/125 kDa ratio
same,62 kDa to 125 kDa SREBP2 ratio,[2],constant ratio of 62 kDa to 125 kDa; also recorded: abrogates sensitivity of SREBP2
same,β1 and β2-adrenergic receptor antagonism,[3],largely devoid of beta-blocker activity

# “Also recorded” adds a separate entry of the source.
